Test results published in patent US9205050B2, “Antibiotic formulations, unit doses, kits and methods” (Bayer Intellectual Property GmbH, priority 2005, dated 2015).

Test: particle size distribution of nebulized aerosol, laser diffraction
Type: physicochemical
Settings: solutions in WFI 40 to 120 mg/ml, fill 2 to 4 ml

gentamicin sulfate
median particle size (volume median diameter): 2 to 3 µM
